The values below are quoted from earlier work in patent US20260355331A1, “CEREBLON DEGRADER CONJUGATES, AND USES THEREOF” (GENENTECH, INC., priority 2022, published 2026).

In data set [1] the target is extracellular domain of HER2. As to conditions: cell-based assay; cited from earlier work.
In another data set the test system is Fo5 mammary tumor (HER2). Particulars: Fo5 mmtv transgenic mouse allograft; cited from earlier work.

As to “Trastuzumab: recombinant DNA-derived, IgG1 kappa, monoclonal antibody that is a humanized version of a murine anti-HER2 antibody (4D5)”, the equilibrium dissociation constant (Kd) – broadly, the free concentration of one partner at which half of the binding sites on the other are occupied at equilibrium, for simple one-to-one binding – in data set [1] is 5 nM. The “response of Fo5 tumors to therapy (in words)” value with Fo5 mammary tumor (HER2) is reported as “does not respond to, or responds poorly to”.
